Values of other authors in patent EP4768496A1, “METHOD FOR PRODUCING PEPTIDE COMPOUND USING TWO OR MORE ADDITIVES” (Chugai Seiyaku Kabushiki Kaisha, priority 2023, dated 2025).

Details: additive; reported literature value, water as solvent, 25°C

In the case of `O=[N+]([O-])C(=NO)[N+](=O)[O-]`, the pKa is listed as 2.7.
